We go through 1 compound from patent US20230091848A1, “DISEASE DETECTION AND TREATMENT BASED ON PHENYLACETYL GLUTAMINE LEVELS” (The Cleveland Clinic Foundation, priority 2020, published 2023).

Molecules are shown by their SMILES.

This assay relates to washed human platelets. The assay can be described thus: cAMP assay in washed human platelets. It counts as cell-based. The procedure: Real-time (RT) PCR in MEG01 cells: Total RNA was isolated from MEG01 cells following TRIZOL RNA isolation protocol post 40 h of siRNA transfection. […] Real time (RT) PCR was carried out following TaqMan Gene Expression Assays protocol using RT primers and probes of ADRA2A (assay Id Hs01099503_s1), ADRA2B (assay Id Hs00265081 s1) and ADRB2 (assay Id Hs00240532_s1) from ThermoFisher Scientific. cAMP assay in MEG01, Platelets and HEK293 cells: Intracellular cAMP levels were measured using CatchPoint Cyclic-AMP Fluorescent Assay Kit from molecular devices (Cat. R8089). […] For the quantification of cAMP, the lysed sample (40 μL), buffer control and cAMP calibrators were added in appropriate wells of a 96-well clear bottom, black wall cAMP assay plates (provided in the kit). […] The plate was covered with aluminum foil and left at room temperature for at least 10 min before reading fluorescence intensity in a FlexStation 3 Multi-Mode Microplate Reader-Molecular devices. […] Intracellular Ca^2+ measurement: Intracellular Ca^2+ in MEG01, HEL92.1.7, parental HEK293, β2-HEK293 (stable) cells, empty vector (EV) transfected HEK293 cells, ADRA2A transfected HEK293 cells and in α2B-HEK293 stable cells was measured using FLIPR Calcium 5 Assay Kit-Molecular devices (Cat. R8186). […]
(Cyclic AMP is a second messenger, typically raised through Gs and lowered through Gi signalling.)

`CC(C)NCC(O)COc1cccc2ccccc12` (centres unmarked) [propranolol]: the “PAGln induced intracellular cAMP production after ADR inhibitors” value was “inhibited PAGln (5 min exposure) induced intracellular cAMP production” and the “intracellular cAMP production after ISO treatment, with ADR inhibitors” value is “reduced”.
